Measured values: PubChem BioAssay AID588456 (National Center for Advancing Translational Sciences (NCATS), 2011)
The list shows a part of the results, in another mix than the full data. Activity calls are given as the source filed them. The call rests on the fitted dose curve; in most records, active means well fitted inhibition curve with a large enough effect; inconclusive means small, poorly fitted or top-dose-only effect; inactive means no such curve, though single readings can be large or run the other way.

By UniProt entry, the sequences of proteins in these tests, tags left out.
UniProt O89049, whole entry, looked up: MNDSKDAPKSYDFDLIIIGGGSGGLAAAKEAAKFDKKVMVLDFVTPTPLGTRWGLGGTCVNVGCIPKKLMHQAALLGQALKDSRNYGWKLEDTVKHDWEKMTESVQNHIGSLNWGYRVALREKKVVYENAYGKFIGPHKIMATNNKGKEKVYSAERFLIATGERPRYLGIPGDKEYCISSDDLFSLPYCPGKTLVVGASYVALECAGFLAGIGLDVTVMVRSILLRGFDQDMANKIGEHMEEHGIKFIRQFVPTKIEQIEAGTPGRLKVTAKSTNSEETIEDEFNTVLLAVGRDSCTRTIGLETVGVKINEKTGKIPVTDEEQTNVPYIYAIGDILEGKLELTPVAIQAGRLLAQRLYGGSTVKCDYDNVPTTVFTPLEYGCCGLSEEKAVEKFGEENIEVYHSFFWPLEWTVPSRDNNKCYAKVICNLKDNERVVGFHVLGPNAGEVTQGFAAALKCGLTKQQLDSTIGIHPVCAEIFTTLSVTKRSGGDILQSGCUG

Molecular target: Thioredoxin reductase 1, cytoplasmic (Rattus norvegicus) (UniProt O89049)
Experiment: qHTS Assay for Substrates of Mammalian Selenoprotein Thioredoxin Reductase 1 (TrxR1): qHTS; further: nearly all actives have a fitted effect of over 50% in size
Details: purified TrxR1 substrate turnover, NADPH consumption readout
[1] = at 114 µM (top of the series) unless noted
On the % scale 0 is the no-effect control and ±100 the full control effect.

Clc1n[nH]nc1-c1nn[nH][15n]1
activity change, negative = substrate turnover [1]: inactive: 2.89%

CC(C)(C)C(=O)NC(Sc1ncccn1)C(Cl)(Cl)Cl (configuration not stated)
activity change, negative = substrate turnover [1]: inactive: 2.92%

CCOP(=O)(Nc1ccc(C)cn1)OCC
activity change, negative = substrate turnover [1]: inactive: 25.7% [at 57.1 µM]

CN(CCCl)Cc1cc(Cl)c(NC2=NCCN2)c(Cl)c1
activity change, negative = substrate turnover (at 57.1 µM (top of the series)): inactive: 3.39% | activity change, negative = substrate turnover (at 114 µM (top of the series)): inactive: 2.99%

O=P1(Nc2ccccn2)COc2ccccc2OC1
activity change, negative = substrate turnover [1]: inactive: 6.55% [at 57.1 µM]

CCC1=CC2Cc3nc4ccc(Cl)cc4c(N)c3C(C1)C2 (configuration not stated)
activity change, negative = substrate turnover [1]: inactive: 5.18%

CCOP(=O)(NC(=NC(C)c1ccccc1)NC(C)c1ccccc1)OCC (configuration not stated)
activity change, negative = substrate turnover [1]: inactive: 2.76%

CC1(CBr)Cn2c(nc3ccccc3c2=O)S1 (configuration not stated)
activity change, negative = substrate turnover [1]: inactive: 0.0086%

CC(C)/C=N\N=C(\N)N[N+](=O)[O-]
activity change, negative = substrate turnover [1]: inactive: -13.9% [at 57.1 µM]

CN(C(=O)Cc1ccc(Cl)c(Cl)c1)[C@@H]1CCCC[C@H]1N1CCCC1
activity change, negative = substrate turnover [1]: inactive: 1.19%

COc1ccccc1CNC(=O)COC(=O)C(O)(c1ccccc1)c1ccccc1
activity change, negative = substrate turnover [1]: inactive: 0.586%

O=C(/C=C/c1ccccc1)OC1CN2CCC1CC2 (configuration not stated)
activity change, negative = substrate turnover [1]: inactive: 3.91% [at 57.1 µM]

CCCC1OP(=O)(Nc2ccccc2)OCC1CC (configuration not stated)
activity change, negative = substrate turnover [1]: inactive: 8.28%

CN(C)C1(CNC(=O)c2ccc(S(C)(=O)=O)cc2)CCCCC1
activity change, negative = substrate turnover [1]: inactive: 4.15%

Cc1nn(-c2ccccc2)c2c1P(=O)(N1CCOCC1)N(C)C(c1ccccc1)=N2 (configuration not stated)
activity change, negative = substrate turnover [1]: inactive: 9.24% [at 57.1 µM]

CC1CCC(C(C)C)C(OP(=O)(Nc2ccccn2)c2ccccc2)C1 (configuration not stated)
activity change, negative = substrate turnover [1]: inactive: -4.67%

Cc1ccc(C(=O)OC2CN3CCC2CC3)cc1 (configuration not stated)
activity change, negative = substrate turnover [1]: inactive: 4.72%

COc1cc([N+](=O)[O-])ccc1[N+](=O)[O-]
activity change, negative = substrate turnover [1]: inactive: -0.161%

O=[As](O)(c1cccs1)c1cccs1
activity change, negative = substrate turnover [1]: inactive: 3.76% [at 57.1 µM]

Cc1ccc(OCC(=O)OC2CN3CCC2CC3)cc1 (configuration not stated)
activity change, negative = substrate turnover [1]: inactive: 4.72%

O=P1(Nc2ccc(Br)cn2)COc2ccccc2OC1
activity change, negative = substrate turnover [1]: inactive: 1.67%

NS(=O)(=O)c1cccc(NC(=O)COC(=O)C(O)(c2ccccc2)c2ccccc2)c1
activity change, negative = substrate turnover [1]: inactive: 3.37%

Nc1cccc([As](=O)(O)c2ccccc2)c1
activity change, negative = substrate turnover [1]: inactive: 7.79%

O=P1(Nc2ncccn2)COc2ccccc2OC1
activity change, negative = substrate turnover [1]: inactive: 10.4% [at 57.1 µM]

Nc1ccccc1[As](=O)(O)c1ccccc1
activity change, negative = substrate turnover [1]: inactive: 0.59%

O=C(O)COc1ccc([As](=O)(O)O)cc1[N+](=O)[O-]
activity change, negative = substrate turnover [1]: inactive: -5.11%

CS(=O)(=O)c1cc([N+](=O)[O-])c2no[n+]([O-])c2c1
activity change, negative = substrate turnover [1]: inactive: -8.37%

CCOP1(=S)c2c(C)nn(CCC#N)c2N=C(c2ccccc2F)N1C (configuration not stated)
activity change, negative = substrate turnover [1]: inactive: 10.8% [at 57.1 µM]

O=P(Nc1nccs1)(Oc1ccccc1)Oc1ccccc1
activity change, negative = substrate turnover [1]: inactive: 3.34%

O=P(Nc1nccs1)(c1ccccc1)c1nc2ccccc2s1 (configuration not stated)
activity change, negative = substrate turnover [1]: inactive: 5.69%

O=[N+]([O-])c1ccc2c(c1)nnn2O
activity change, negative = substrate turnover [1]: inactive: -7.94%

CN(C)C(=O)c1cc([N+](=O)[O-])cc2c1-c1c(cc([N+](=O)[O-])cc1[N+](=O)[O-])C2=O
activity change, negative = substrate turnover [1]: inactive: -16.1%

CN(C(=O)Cc1ccc(Cl)c(Cl)c1)[C@H]1CC[C@@]2(CCCO2)C[C@@H]1N1CCCC1
activity change, negative = substrate turnover [1]: inactive: 0.234%

N#CCCN(C(=O)COC(=O)C(O)(c1ccccc1)c1ccccc1)c1ccc(F)cc1
activity change, negative = substrate turnover [1]: inactive: -1.83%

CN(C(=O)Cc1ccccc1)[C@@H]1CC[C@]2(CCCO2)C[C@H]1N1CCCC1
activity change, negative = substrate turnover (at 57.1 µM (top of the series)): inactive: 16.3% | activity change, negative = substrate turnover (at 114 µM (top of the series)): inactive: 6.07%

CCOP1(=S)c2c(C)nn(CCC#N)c2N=C(c2ccc(F)cc2)N1C (configuration not stated)
activity change, negative = substrate turnover [1]: inactive: 2.35%

NC(=O)Nc1ccc([As](=O)(O)O)cc1
activity change, negative = substrate turnover [1]: inactive: -0.401%

Cc1cccc(OCC(=O)OC2CN3CCC2CC3)c1 (configuration not stated)
activity change, negative = substrate turnover [1]: inactive: 5.68% [at 57.1 µM]

O=[As](O)(c1cccc(O)c1)c1cccc(O)c1
activity change, negative = substrate turnover [1]: inactive: 1.23%

O=[As](O)(O)c1cccnc1
activity change, negative = substrate turnover [1]: inactive: 12.2%

COc1cc(C(=O)NCC2(N3CCOCC3)CCCCC2)cc(Cl)c1OC(C)C
activity change, negative = substrate turnover [1]: inactive: 4.66% [at 57.1 µM]

CS(=O)(=O)c1ccc(Cl)c(NC(=O)COC(=O)C(O)(c2ccccc2)c2ccccc2)c1
activity change, negative = substrate turnover [1]: inactive: -10.4%

O=C(OC1CN2CCC1CC2)c1ccc(Cl)cc1 (configuration not stated)
activity change, negative = substrate turnover [1]: inactive: -3.72%

COc1cc(C2NCCC3(OCCO3)C2(C)C)cc(OC)c1OC (configuration not stated)
activity change, negative = substrate turnover [1]: inactive: -3.91%

CCOP(=O)(Nc1cccc2ccccc12)OCC
activity change, negative = substrate turnover [1]: inactive: 19.7%

CCCOP(=S)(Nc1nc(N)cc(=O)[nH]1)OCCC
activity change, negative = substrate turnover [1]: inactive: 0.358% [at 57.1 µM]

Nc1cccc2c([As](=O)(O)O)cccc12
activity change, negative = substrate turnover [1]: inactive: -2.48% [at 57.1 µM]

Cc1ccc(NCCc2c([N+](=O)[O-])cc([N+](=O)[O-])cc2[N+](=O)[O-])cc1
activity change, negative = substrate turnover [1]: inactive: -7.41%

COc1ccc2nc(NP(=O)(c3ccccc3)c3ccccc3)sc2c1
activity change, negative = substrate turnover [1]: inactive: 5.3%

COc1cc(I)ccc1[As](=O)(O)O
activity change, negative = substrate turnover [1]: inactive: 3.44%

O=P1(N(CCCl)CCCl)Nc2ccccc2N1
activity change, negative = substrate turnover [1]: inactive: 11.3% [at 57.1 µM]

O=P1(N(CCCl)CCCl)OCCCN1CCCl (configuration not stated)
activity change, negative = substrate turnover [1]: inactive: -6.02%

O=C(OC1CN2CCC1CC2)C12CC3CC(CC(C3)C1)C2 (configuration not stated)
activity change, negative = substrate turnover [1]: inactive: 6.18%

Cc1cc(=O)[nH]c(N[N+](=O)[O-])n1
activity change, negative = substrate turnover [1]: inactive: -5.23%

Cc1c2c(nc3ccccc13)SC(C(Cl)Cl)C2 (configuration not stated)
activity change, negative = substrate turnover [1]: inactive: 3.18%

COc1ccc(N/C(=N/P(=O)(N2CCOCC2)N2CCOCC2)N2CCOCC2)cc1
activity change, negative = substrate turnover [1]: inactive: 8.13% [at 57.1 µM]

O=[N+]([O-])c1cc(Oc2ccc([N+](=O)[O-])cc2C(F)(F)F)cc([N+](=O)[O-])c1
activity change, negative = substrate turnover [1]: inactive: -2.26%

Cc1ccc2nc3c(c(C)c2c1)CC(C(Cl)Cl)S3 (configuration not stated)
activity change, negative = substrate turnover [1]: inactive: -21.5% [at 57.1 µM]

Cc1ccc(OP(=O)(Nc2ccc([N+](=O)[O-])cn2)Oc2ccc(C)cc2)cc1
activity change, negative = substrate turnover [1]: inactive: -1.95%

ClCCN(CCCl)c1ccc(CC2C=CC=C2)cc1
activity change, negative = substrate turnover [1]: inactive: 0.109%
